Amino acid sequences for entries named in this document (tags omitted). A change or cut given only in a name is not applied to a line headed by its entry.
UniProt P97266, whole entry, looked up: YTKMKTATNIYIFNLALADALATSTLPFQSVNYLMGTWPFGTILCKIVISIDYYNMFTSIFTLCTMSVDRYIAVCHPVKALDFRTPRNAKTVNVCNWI
UniProt P41144: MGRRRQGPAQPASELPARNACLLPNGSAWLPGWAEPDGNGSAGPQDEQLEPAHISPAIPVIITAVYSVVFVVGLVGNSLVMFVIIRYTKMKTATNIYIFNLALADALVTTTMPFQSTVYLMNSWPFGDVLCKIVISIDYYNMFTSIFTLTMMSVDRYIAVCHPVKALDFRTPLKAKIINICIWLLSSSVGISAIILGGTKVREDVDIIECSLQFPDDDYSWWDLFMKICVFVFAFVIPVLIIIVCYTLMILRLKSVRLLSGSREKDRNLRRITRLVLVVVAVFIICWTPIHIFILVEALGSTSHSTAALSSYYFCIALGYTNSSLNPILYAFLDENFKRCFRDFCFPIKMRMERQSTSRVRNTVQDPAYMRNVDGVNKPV
UniProt P41145: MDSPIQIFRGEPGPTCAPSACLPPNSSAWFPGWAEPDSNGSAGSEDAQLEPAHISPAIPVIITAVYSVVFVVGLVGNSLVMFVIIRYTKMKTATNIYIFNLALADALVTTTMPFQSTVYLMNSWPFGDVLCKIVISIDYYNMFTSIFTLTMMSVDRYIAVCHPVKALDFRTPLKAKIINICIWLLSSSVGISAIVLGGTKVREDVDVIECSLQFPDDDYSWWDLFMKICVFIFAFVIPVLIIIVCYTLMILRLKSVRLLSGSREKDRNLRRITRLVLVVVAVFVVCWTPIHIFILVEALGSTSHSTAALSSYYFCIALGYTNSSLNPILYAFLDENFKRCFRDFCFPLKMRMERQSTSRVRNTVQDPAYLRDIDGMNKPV

In ChEMBL document CHEMBL4007424, “Design and Synthesis of Enantiomerically Pure Decahydroquinoxalines as Potent and Selective κ-Opioid Receptor Agonists with Anti-Inflammatory Activity in Vivo” (J Med Chem, 2017):

Key:
Mu-type opioid receptor = Mu-type opioid receptor (Cavia porcellus, UniProt P97266); assay: Displacement of [3H]DAMGO from mu-type opioid receptor in guinea pig brain membranes after 120 mins by solid scintillation counting
[1] = target: Kappa-type opioid receptor (Cavia porcellus, UniProt P41144); assay: Displacement of [3H]U-69,593 from kappa-type opioid receptor in guinea pig brain membranes after 120 mins by solid scintillation counting
[2] = target: Kappa-type opioid receptor (Homo sapiens, UniProt P41145); assay: Agonist activity at recombinant human kappa-type opioid receptor expressed in HEK293 cells after 30 mins by [35S]GTPgammaS binding assay

## O=C(Cc1ccc(Cl)c(Cl)c1)N1CCN[C@H]2CCC[C@H](N3CCCC3)[C@H]21
Mu-type opioid receptor
  Ki: 217 nM
[1]
  Ki: 0.35 nM
[2]
  EC50: 3.7 nM
